In patent publication US20240130994A1, “IONIC LIQUID FORMULATIONS FOR TREATING DIABETES” (i2O Therapeutics, Inc., priority 2020, published 2024):

Experiment: Physical form of choline-based ionic liquids at room temperature
Format: physicochemical
Details: for appearance and physical form: room temperature, ratio as in label
Protocol: Several ionic liquids comprising choline as a cation and various anions were synthesized. […] For anions not miscible with the aqueous choline bicarbonate solution, a co-solvent, such as ethanol, was added until a homogenous mixture formed. The mixture was stirred at room temperature until CO2 evolution ceased. Solvent was removed by rotary evaporation at 60° C. for 20 minutes, and each product was dried in a vacuum oven for 48 hours at 60° C.

Physical Form (Ratios Listed as Cation:Anion) (cation:anion 1:1, room temperature): Solid
Physical Form (Ratios Listed as Cation:Anion) (cation:anion 2:1, room temperature): Liquid
appearance and physical form (listed as choline-tartaric acid (1:1)): solid
appearance and physical form (listed as choline-tartaric acid (2:1)): clear liquids
Substance: L-(+)-Tartaric Acid
